Test results from patent publication US4607114A, “Novel platinum complexes” (Nippon Kayaku Kabushiki Kaisha, priority 1983, dated 1986).

In the case of CC(C)(N)CN.[OH][Pt]([OH])([Cl])[Cl] [compound 2, cis-Dichloro-trans-dihydroxy-1,2-diamino-2-methylpropane platinum], the Solubility in water is reported as > 20 mg/mL.
In the case of NCC1(N)CCCC1.[Cl][Pt][Cl] [compound 18, cis-Dichloro-1-amino-1-aminomethylcyclopentane platinum], the Solubility in water is reported as > 3 mg/mL.
In the case of CCC(C(=O)[O-])C(=O)[O-].NCC1(N)CCCC1.[Pt+2] [compound 22, cis-2-Ethylmalonato-1-amino-1-aminomethylcyclopentane platinum], the Solubility in water is reported as > 50 mg/mL.
For NCC1(N)CCCC1.[OH][Pt]([OH])([Cl])[Cl] [compound 19, cis-Dichloro-trans-dihydroxy-1-amino-1-aminomethylcyclopentane platinum], the Solubility in water was > 10 mg/mL.
